Columns and labels:
[1] = biological target: T1, D(2) dopamine receptor (Rattus norvegicus, UniProt P61169); assay: Displacement of [3H]raclopride from rat dopamine D2short receptor expressed in CHO-K1 cells by liquid scintillation counting; assay type: cell-based
[2] = biological target: T1, D(2) dopamine receptor; assay: Agonist activity at rat dopamine D2short receptor expressed in CHO-K1 cells assessed as stimulation of [35S]GTPgammaS binding by liquid scintillation counting; assay type: functional, cell-based

Sequences of proteins named here, by UniProt entry; tags and fusion partners are left off.
UniProt P61169, whole entry: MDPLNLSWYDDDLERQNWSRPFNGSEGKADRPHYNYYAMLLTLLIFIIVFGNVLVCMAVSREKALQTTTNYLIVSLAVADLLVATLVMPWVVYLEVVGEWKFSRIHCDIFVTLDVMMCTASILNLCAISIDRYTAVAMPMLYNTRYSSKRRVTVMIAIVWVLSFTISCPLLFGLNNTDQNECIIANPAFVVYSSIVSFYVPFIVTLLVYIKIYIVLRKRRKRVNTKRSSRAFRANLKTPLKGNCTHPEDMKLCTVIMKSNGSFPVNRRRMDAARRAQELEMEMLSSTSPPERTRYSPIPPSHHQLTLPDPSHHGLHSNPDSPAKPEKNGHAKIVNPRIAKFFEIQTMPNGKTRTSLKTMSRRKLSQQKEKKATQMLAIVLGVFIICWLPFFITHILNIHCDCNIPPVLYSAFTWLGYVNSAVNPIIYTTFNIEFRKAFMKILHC

SMILES: CN1CCc2cccc3c2[C@H]1Cc1ccc(O)c(O)c1-3 [APOMORPHINE]
- Ki [1]: 0.0115 µM
- EC50 [2]: 0.053 µM
